Target: T1, rTas1r2-hTAS1R3 (UniProt Q7RTX0+Q9Z0R7)
T1 sequence (Q9Z0R7 20-843): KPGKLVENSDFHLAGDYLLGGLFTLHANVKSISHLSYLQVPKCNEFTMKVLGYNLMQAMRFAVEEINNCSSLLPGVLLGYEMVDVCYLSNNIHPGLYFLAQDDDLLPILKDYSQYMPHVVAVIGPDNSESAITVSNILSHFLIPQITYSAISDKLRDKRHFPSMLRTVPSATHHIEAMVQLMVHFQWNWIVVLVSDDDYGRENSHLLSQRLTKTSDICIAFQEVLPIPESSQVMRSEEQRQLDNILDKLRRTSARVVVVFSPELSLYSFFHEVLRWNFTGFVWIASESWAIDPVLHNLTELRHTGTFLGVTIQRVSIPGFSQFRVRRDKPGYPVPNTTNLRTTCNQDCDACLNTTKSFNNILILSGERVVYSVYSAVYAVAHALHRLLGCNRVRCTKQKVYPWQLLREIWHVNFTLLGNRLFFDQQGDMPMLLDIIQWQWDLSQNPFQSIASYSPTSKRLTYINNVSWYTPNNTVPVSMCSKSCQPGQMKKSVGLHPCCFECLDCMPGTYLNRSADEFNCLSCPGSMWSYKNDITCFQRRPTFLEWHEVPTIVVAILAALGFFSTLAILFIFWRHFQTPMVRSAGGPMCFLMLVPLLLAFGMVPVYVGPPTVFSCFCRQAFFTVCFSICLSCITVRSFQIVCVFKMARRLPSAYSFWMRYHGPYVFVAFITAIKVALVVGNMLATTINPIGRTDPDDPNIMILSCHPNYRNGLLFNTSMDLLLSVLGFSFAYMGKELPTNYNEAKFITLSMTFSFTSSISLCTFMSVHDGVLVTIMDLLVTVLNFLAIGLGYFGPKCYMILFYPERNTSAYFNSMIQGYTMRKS
T1 sequence (Q7RTX0 21-852): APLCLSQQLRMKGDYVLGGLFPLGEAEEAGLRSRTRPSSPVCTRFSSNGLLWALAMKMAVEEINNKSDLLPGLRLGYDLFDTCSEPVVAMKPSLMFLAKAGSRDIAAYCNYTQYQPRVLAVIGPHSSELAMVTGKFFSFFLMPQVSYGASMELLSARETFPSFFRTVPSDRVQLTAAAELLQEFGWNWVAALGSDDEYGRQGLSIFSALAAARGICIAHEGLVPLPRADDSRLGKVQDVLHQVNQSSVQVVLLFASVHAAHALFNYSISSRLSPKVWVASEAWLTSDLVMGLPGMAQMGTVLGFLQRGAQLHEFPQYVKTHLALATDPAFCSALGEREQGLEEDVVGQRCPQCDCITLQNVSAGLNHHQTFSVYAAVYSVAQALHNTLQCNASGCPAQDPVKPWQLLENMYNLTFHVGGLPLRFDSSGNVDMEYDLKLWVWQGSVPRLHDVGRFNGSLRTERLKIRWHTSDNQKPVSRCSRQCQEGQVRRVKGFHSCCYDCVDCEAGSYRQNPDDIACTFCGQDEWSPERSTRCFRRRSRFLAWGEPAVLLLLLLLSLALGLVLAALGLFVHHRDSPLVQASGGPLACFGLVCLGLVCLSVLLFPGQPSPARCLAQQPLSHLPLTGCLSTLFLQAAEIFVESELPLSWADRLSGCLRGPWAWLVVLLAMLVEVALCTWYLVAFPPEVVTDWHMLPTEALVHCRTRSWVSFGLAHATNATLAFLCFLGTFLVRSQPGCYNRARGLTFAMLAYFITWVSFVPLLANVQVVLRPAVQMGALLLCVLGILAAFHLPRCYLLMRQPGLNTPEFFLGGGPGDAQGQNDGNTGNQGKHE
Assay: Calcium mobilization (FLIPR), interspecies combination
Settings: asp 15 mM; cyc 30 mM; neo 0.1 mM; sac 10 mM; suc 100 mM; stev 1 mM; markedly reduced amplitudes

activation of receptor (calcium response): failed to activate
SMILES: O=C1NS(=O)(=O)c2ccccc21 [saccharin]
